Measured values from patent publication US7407982B2, “Oligo or polyalkylene glycol-coupled thrombin inhibitors” (HaemoSys GmbH, priority 2001, dated 2008).

Chains of the proteins cited; added tags and fusions are not shown. Residues count along the entry.
UniProt P00760, 24-246 limits assumed: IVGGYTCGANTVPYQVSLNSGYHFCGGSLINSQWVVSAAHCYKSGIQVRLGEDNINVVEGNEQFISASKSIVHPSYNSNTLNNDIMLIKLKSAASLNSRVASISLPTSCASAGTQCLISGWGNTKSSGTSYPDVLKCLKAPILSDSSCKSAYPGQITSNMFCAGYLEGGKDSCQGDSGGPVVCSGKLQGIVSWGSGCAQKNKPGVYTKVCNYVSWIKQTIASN

Assays:
[1] = molecular target: human α-thrombin (Homo sapiens, UniProt P00734); assay: Determination of Ki for thrombin inhibition (chromogenic or fluorogenic substrate, Dixon)
[2] = molecular target: trypsin (Bos taurus, UniProt P00760); assay: Ki values for trypsin, determined analogously; conditions: read-out: Ki Trypsin; Table 2, formula (III) compounds

Ki Trypsin/Ki Thrombin ([1]; Table 2, selectivity quotient): 10.4
Ki ([1]; read-out: Ki Thrombin, Table 2, formula (III) compounds): 5.24 nM
Ki [2]: 54.5 nM
SMILES: C[C@@H](O)[C@H](NS(=O)(=O)c1ccc2ccccc2c1)C(=O)N1CCC[C@H]1C(=O)NCc1ccc(C(=N)N)cc1
